Measured values taken from publication PMC6982547 (Leukemia & lymphoma, 2019).
Like-named read-outs stand apart in the source and are kept apart here.

Conditions: human, in vivo

Compound: O=C(CCCCCCC(=O)Nc1ccccc1)NO [Vorinostat]
- Cl/F: 143 L/h
- Cl/F (200 mg): 331 L/h
